This passage reports IC50 results from patent publication US20260207704A1, “STAPLED PEPTIDES AND METHODS THEREOF” (priority 2022, published 2026).

The chains behind the UniProt entries cited, without tags or fusion partners.
UniProt P35222, whole entry: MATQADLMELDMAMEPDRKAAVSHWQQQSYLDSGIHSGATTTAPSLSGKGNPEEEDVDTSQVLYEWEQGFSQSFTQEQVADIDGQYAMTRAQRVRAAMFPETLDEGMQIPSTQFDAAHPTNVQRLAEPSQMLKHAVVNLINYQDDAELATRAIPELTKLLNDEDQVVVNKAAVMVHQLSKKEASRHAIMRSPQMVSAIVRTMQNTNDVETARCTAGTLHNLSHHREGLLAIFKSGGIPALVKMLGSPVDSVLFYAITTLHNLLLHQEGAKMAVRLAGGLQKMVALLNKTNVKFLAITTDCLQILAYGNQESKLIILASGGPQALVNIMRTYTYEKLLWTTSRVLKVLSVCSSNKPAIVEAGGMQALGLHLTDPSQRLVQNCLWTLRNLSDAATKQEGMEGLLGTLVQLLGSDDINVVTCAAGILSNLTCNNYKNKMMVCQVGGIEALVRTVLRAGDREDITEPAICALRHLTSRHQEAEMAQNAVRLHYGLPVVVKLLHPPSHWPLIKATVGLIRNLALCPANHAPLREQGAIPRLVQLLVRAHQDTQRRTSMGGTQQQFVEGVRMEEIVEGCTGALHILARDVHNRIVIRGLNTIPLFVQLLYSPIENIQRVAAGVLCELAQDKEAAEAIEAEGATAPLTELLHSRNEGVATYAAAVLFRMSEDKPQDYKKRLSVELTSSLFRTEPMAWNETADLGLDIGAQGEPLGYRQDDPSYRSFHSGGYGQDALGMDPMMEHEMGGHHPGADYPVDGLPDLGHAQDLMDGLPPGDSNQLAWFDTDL

In one assay the target is beta-catenin (Homo sapiens, UniProt P35222). Briefly: fluorescence polarization binding to beta-catenin. As to conditions: beta-Catenin FP IC50 (nM). In general terms: Polarisation of emitted light reports the rotation of a fluorescent probe.
For a further assay, the target named is T1, beta-catenin/TCF4 (Homo sapiens, UniProt P35222).
T1 construct: expressed in transfected cells; host or cells: HEK293 cells
Briefly: Nano-BRET target engagement assay (HEK293 cells). The class given is cell-based. On the technique in general: BRET reads energy transfer from a luciferase to a nearby fluorophore.

For `CC(=O)N1CCC[C@]12CC=CCCCC1(CCCC=CCCCOC(=O)N3CC[C@@]4(C3)NC(=O)[C@H](CCCNC(=O)CC[C@@H](C(N)=O)NC(=O)[C@H](Cc3csc5ccccc35)NC(=O)[C@H](Cc3ccsc3)NC4=O)NC(=O)[C@H](Cc3ccccc3)NC(=O)[C@H](C)NC(=O)[C@H](C)NC(=O)[C@H](Cc3cccc(C(=O)O)c3)NC(=O)[C@H](CC(=O)O)NC1=O)NC(=O)[C@H](CC(C)(C)C)NC(=O)[C@H](CC(=O)O)NC2=O` (relative stereo) [I-37, Ac-PL3-Asp-Npg-B5-Asp-3COOHF-Ala-Ala-Phe-Orn*3-PyrS2-3Thi-BztA-GlnR*3-NH2], the IC50 on beta-catenin is below 50 nM; against beta-catenin/TCF4, 3 to 10 µM.
Regarding `CC(=O)N1CCC[C@]12CC=CCCCC1(CCCC=CCCCOC(=O)N3CC[C@@]4(C3)NC(=O)[C@H](CCC(=O)NCCC[C@@H](C(N)=O)NC(=O)[C@H](Cc3csc5ccccc35)NC(=O)[C@H](Cc3ccsc3)NC4=O)NC(=O)[C@H](Cc3ccccc3)NC(=O)[C@H](C)NC(=O)[C@H](C)NC(=O)[C@H](Cc3cccc(C(=O)O)c3)NC(=O)[C@H](CC(=O)O)NC1=O)NC(=O)[C@H](CC(C)(C)C)NC(=O)[C@H](CC(=O)O)NC2=O` (relative stereo) [I-38, Ac-PL3-Asp-Npg-B5-Asp-3COOHF-Ala-Ala-Phe-GlnR*3-PyrS2-3Thi-BztA-Orn*3-NH2], the concentration for half-maximal inhibition (IC50) was below 50 nM at beta-catenin and 3 to 10 µM against beta-catenin/TCF4.
The corresponding values for `CC(=O)N1CCC[C@]12CC=CCCCC1(CCCC=CCCCOC(=O)N3CC[C@@]4(C3)NC(=O)[C@H](CCCNC(=O)C[C@@H](C(N)=O)NC(=O)[C@H](Cc3csc5ccccc35)NC(=O)[C@H](Cc3ccsc3)NC4=O)NC(=O)[C@H](Cc3ccccc3)NC(=O)[C@H](C)NC(=O)[C@H](C)NC(=O)[C@H](Cc3cccc(C(=O)O)c3)NC(=O)[C@H](CC(=O)O)NC1=O)NC(=O)[C@H](CC(C)(C)C)NC(=O)[C@H](CC(=O)O)NC2=O` (relative stereo) [I-39, Ac-PL3-Asp-Npg-B5-Asp-3COOHF-Ala-Ala-Phe-Orn*3-PyrS2-3Thi-BztA-AsnR*3-NH2] are below 50 nM and above 10 µM.
In the same order, the values of `CC(=O)N1CCC[C@]12CC=CCCCC1(CCCC=CCCCOC(=O)N3CC[C@@]4(C3)NC(=O)[C@H](CCCCNC(=O)CC[C@@H](C(=O)N3CCC[C@H]3CO)NC(=O)[C@H](Cc3csc5ccccc35)NC(=O)[C@H](Cc3ccsc3)NC4=O)NC(=O)[C@H](Cc3ccccc3)NC(=O)[C@H](C)NC(=O)[C@H](C)NC(=O)[C@H](Cc3cccc(C(=O)O)c3)NC(=O)[C@H](CC(=O)O)NC1=O)NC(=O)[C@H](CC(C)(C)C)NC(=O)[C@H](CC(=O)O)NC2=O` (relative stereo) [I-64, Ac-PL3-Asp-Npg-B5-Asp-3COOHF-Ala-Ala-Phe-Lys*3-PyrS2-3Thi-BztA-GlnR*3-Prool] are below 50 nM and 1.5 to 3 µM.
In the same order, the values of `CC(=O)N1CCC[C@]12CC=CCCCC1(CCCC=CCCCOC(=O)N3CC[C@@]4(C3)NC(=O)[C@H](CCCCNC(=O)CC[C@@H](C(=O)N[C@@H](C)CO)NC(=O)[C@H](Cc3csc5ccccc35)NC(=O)[C@H](Cc3ccsc3)NC4=O)NC(=O)[C@H](Cc3ccccc3)NC(=O)[C@H](C)NC(=O)[C@H](C)NC(=O)[C@H](Cc3cccc(C(=O)O)c3)NC(=O)[C@H](CC(=O)O)NC1=O)NC(=O)[C@H](CC(C)(C)C)NC(=O)[C@H](CC(=O)O)NC2=O` (relative stereo) [I-65, Ac-PL3-Asp-Npg-B5-Asp-3COOHF-Ala-Ala-Phe-Lys*3-PyrS2-3Thi-BztA-GlnR*3-Alaol] are below 50 nM and 1.5 to 3 µM.
Consider `CC(=O)N1CCC[C@]12CC=CCCCC13CCCC=CCCCOC(=O)N4CC[C@@]5(C4)NC(=O)[C@H](CCCCNC(=O)CC[C@@H](C(=O)N[C@@H](C)C(N)=O)NC(=O)[C@H](Cc4csc6ccccc46)NC(=O)[C@H](Cc4ccsc4)NC5=O)NC(=O)[C@H](Cc4ccccc4)NC(=O)[C@H](C)NC(=O)[C@H](CCCCNC(=O)CC[C@H](NC(=O)[C@H](CC(=O)O)NC2=O)C(=O)N1)NC(=O)[C@H](Cc1cccc(C(=O)O)c1)NC(=O)[C@H](CC(=O)O)NC3=O` (relative stereo) [I-74, Ac-PL3-Asp-GlnR**3-B5-Asp-3COOHF-Lys**3-Ala-Phe-Lys*3-PyrS2-3Thi-BztA-GlnR*3-Ala-NH2], for which the IC50 on beta-catenin is below 50 nM; on beta-catenin/TCF4, above 10 µM.
`CC(=O)N1CCC[C@]12CC=CCCCC13CCCC=CCCCOC(=O)N4CC[C@@]5(C4)NC(=O)[C@H](CCCCNC(=O)CC[C@@H](C(=O)N[C@@H](C)C(N)=O)NC(=O)[C@H](Cc4csc6ccccc46)NC(=O)[C@H](Cc4ccccc4C(F)(F)F)NC5=O)NC(=O)[C@H](Cc4ccccc4)NC(=O)[C@H](C)NC(=O)[C@H](CCCCNC(=O)CC[C@H](NC(=O)[C@H](CC(=O)O)NC2=O)C(=O)N1)NC(=O)[C@H](Cc1cccc(C(=O)O)c1)NC(=O)[C@H](CC(=O)O)NC3=O` (relative stereo) [I-75, Ac-PL3-Asp-GlnR**3-B5-Asp-3COOHF-Lys**3-Ala-Phe-Lys*3-PyrS2-2F3MeF-BztA-GlnR*3-Ala-NH2]: the IC50 is below 50 nM on beta-catenin and above 10 µM on beta-catenin/TCF4.
As to `CC(=O)N1CCC[C@]12CCCCCCC13CCCCCCCCOC(=O)N4CC[C@@]5(C4)NC(=O)[C@H](CCCCNC(=O)CC[C@@H](C(=O)N[C@@H](C)C(N)=O)NC(=O)[C@H](Cc4csc6ccccc46)NC(=O)[C@H](Cc4ccsc4)NC5=O)NC(=O)[C@H](Cc4ccccc4)NC(=O)[C@H](C)NC(=O)[C@H](CCCCNC(=O)CC[C@H](NC(=O)[C@H](CC(=O)O)NC2=O)C(=O)N1)NC(=O)[C@H](Cc1cccc(C(=O)O)c1)NC(=O)[C@H](CC(=O)O)NC3=O` (relative stereo) [I-78, Ac-PL3-Asp-GlnR**3-B5-Asp-3COOHF-Lys**3-Ala-Phe-Lys*3-PyrS2-3Thi-BztA-GlnR*3-Ala-NH2], the IC50 at beta-catenin was below 50 nM; against beta-catenin/TCF4, above 10 µM.
In the same order, the values of `CC(=O)N1CCC[C@]12CC=CCCCC1(CCCC=CCCCOC(=O)N3CC[C@@]4(C3)NC(=O)[C@H](CCCCNC(=O)CC[C@@H](C(=O)N[C@@H](C)C(N)=O)NC(=O)[C@H](Cc3csc5ccccc35)NC(=O)[C@H](Cc3ccccc3C(F)(F)F)NC4=O)NC(=O)[C@H](Cc3ccccc3)NC(=O)[C@H](C)NC(=O)C(C)(C)NC(=O)[C@H](Cc3cccc(C(=O)O)c3O)NC(=O)[C@H](CC(=O)O)NC1=O)NC(=O)[C@H](CC(C)(C)C)NC(=O)[C@H](CC(=O)O)NC2=O` (relative stereo) [I-193, Ac-PL3-Asp-Npg-B5-Asp-20H3COOHF-Aib-Ala-Phe-Lys*3-PyrS2-2F3MeF-BztA-GlnR*3-Ala-NH2] are below 50 nM and 3 to 10 µM.
Take `CC(=O)N1CCC[C@]12CC=CCCCC1(CCCC=CCCCOC(=O)N3CC[C@@]4(C3)NC(=O)[C@H](CSc3c(F)c(F)c(c(F)c3F)-c3c(F)c(F)c(c(F)c3F)SC[C@@H](C(=O)N[C@@H](C)C(N)=O)NC(=O)[C@H](Cc3csc5ccccc35)NC(=O)[C@H](Cc3ccccc3C(F)(F)F)NC4=O)NC(=O)[C@H](Cc3ccccc3)NC(=O)[C@H](C)NC(=O)C(C)(C)NC(=O)[C@H](Cc3cccc(C(=O)O)c3)NC(=O)[C@H](CC(=O)O)NC1=O)NC(=O)[C@H](CC(C)(C)C)NC(=O)[C@H](CC(=O)O)NC2=O` (single isomer, unassigned) [I-341, Ac-PL3-Asp-Npg-B5-Asp-3COOHF-Aib-Ala-Phe-[8FBB]Cys-PyrS2-2F3MeF-BztA-Cys-Ala-NH2]: on beta-catenin/TCF4, the IC50 is above 10 µM.

The term IC50 denotes the concentration at which inhibition is half-maximal. Low values mean higher potency, high ones lower potency.
